Among the data in BindingDB's records for doi:10.1021/jm9905965 (National Institute of Diabetes, 2000) are Ki values, retold here.

Sequences of proteins named here, by UniProt entry; tags and fusion partners are left off.
UniProt P25099, whole entry: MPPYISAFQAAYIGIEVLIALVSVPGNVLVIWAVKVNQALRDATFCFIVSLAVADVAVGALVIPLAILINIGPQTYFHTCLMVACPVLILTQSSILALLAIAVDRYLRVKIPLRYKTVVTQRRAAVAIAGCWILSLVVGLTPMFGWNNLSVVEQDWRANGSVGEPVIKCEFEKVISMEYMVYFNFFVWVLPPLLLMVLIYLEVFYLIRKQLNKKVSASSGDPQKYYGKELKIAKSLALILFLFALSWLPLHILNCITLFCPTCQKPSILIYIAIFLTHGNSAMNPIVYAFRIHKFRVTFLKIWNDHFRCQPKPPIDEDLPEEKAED

The target in this assay is Adenosine receptor A1 (Rattus norvegicus, UniProt P25099).

With `OC[C@H]1O[C@@H](n2cnc3c(NCc4cccc(I)c4)nc(Cl)nc32)[C@H](O)[C@@H]1O` [(2R,3R,4S,5R)-2-[2-Chloro-6-(3-iodo-benzylamino)-purin-9-yl]-5-hydroxymethyl-tetrahydro-furan-3,4-diol], the inhibition constant (Ki) (commonly the equilibrium dissociation constant of an inhibitor or competing ligand from its target) was determined as 19 nM.
